Measurements taken from US10172863B2, “Purine derivatives useful as HSP90 inhibitors” (Sloan-Kettering Institute for Cancer Research, priority 2009, dated 2019).
This is a selection: effects in other tests are not listed, and their absence says nothing.

Columns and labels:
[1] = tested on: SKBr3 cell Hsp90; experiment: EC50 for Hsp90 binding in SKBr3 cell lysate; details: read-out: EC50, binding to SKBr3 cell Hsp90
[2] = tested on: JNPL3 brain Hsp90; experiment: EC50 for Hsp90 binding in JNPL3 brain cell lysate; details: read-out: EC50, binding to JNPL3 brain Hsp90

Compound	EC50 [1] [nM]	EC50 [2] [nM]
CC(C)CNCCn1c(Cc2cc3c(cc2-c2cccs2)OCO3)nc2c(N)nc(F)nc21	59	24
CC(C)CNCCn1c(Cc2cc3c(cc2-c2cnoc2)OCO3)nc2c(N)nc(F)nc21	185	153
CC(C)CNCCn1c(Cc2cc3c(cc2-c2ccnn2C)OCO3)nc2c(N)nc(F)nc21	> 300	> 300
CC(C)CNCCn1c(Cc2cc3c(cc2-c2cc[nH]c2)OCO3)nc2c(N)nc(F)nc21	47	23
CC(C)CNCCn1c(Cc2cc3c(cc2CC#N)OCO3)nc2c(N)nc(F)nc21	93	46
CC(C)CNCCn1c(Cc2cc3c(cc2-c2ncco2)OCO3)nc2c(N)nc(F)nc21	11.4	
CC(C)CNCCn1c(Cc2cc3c(cc2-c2ccc(C=O)o2)OCO3)nc2c(N)nc(F)nc21	142	82
CC(C)(C)CNCCn1c(Cc2cc3c(cc2I)CCO3)nc2c(N)nc(F)nc21		8
CC(C)CNCCn1c(Cc2cc3c(cc2-c2cc[nH]n2)OCO3)nc2c(N)nc(F)nc21	7.2	2.6
CC(C)(C)NCCn1c(Cc2cc3c(cc2I)OCCO3)nc2c(N)nc(F)nc21		45.1
CC(C)CNCCn1c(Cc2cc3c(cc2-c2cc[nH]n2)OCCO3)nc2c(N)nc(F)nc21	7.7	
CC(C)CNCCn1c(Cc2cc3c(cc2I)CCO3)nc2c(N)nc(F)nc21		17.3
Cc1ccc(-c2cc3c(cc2Cc2nc4c(N)nc(F)nc4n2CCNCC(C)C)OCO3)o1	12	6
CC(C)CNCCn1c(Cc2cc3c(cc2-c2ccco2)OCCO3)nc2c(N)nc(F)nc21	5.3	
CC(C)CNCCn1c(Cc2cc3c(cc2I)OCCO3)nc2c(N)nc(F)nc21	9.4	
CC(C)CNCCn1c(Cc2cc3c(cc2-c2cn[nH]c2)OCO3)nc2c(N)nc(F)nc21	128	
CC(C)CNCCn1c(Cc2cc3c(cc2-c2ccoc2)OCO3)nc2c(N)nc(F)nc21	26	14
CC(C)CNCCn1c(Cc2cc3c(cc2-c2ccco2)OCO3)nc2c(N)nc(F)nc21	5.2	3.9
CC(C)CNCCn1c(Cc2cc3c(cc2-c2nccs2)OCO3)nc2c(N)nc(F)nc21	19.7	
C#Cc1cc2c(cc1Cc1nc3c(N)nc(F)nc3n1CCNCC(C)C)OCO2		< 200
CC(C)CNCCn1c(Cc2cc3c(cc2-c2ccc[nH]2)OCO3)nc2c(N)nc(F)nc21	121	89
